{"sequences": {"note": "Sequences of proteins named here, by UniProt entry; tags and fusion partners are left off. A change or cut given only in a name is not applied to a line headed by its entry.", "UniProt O15379": "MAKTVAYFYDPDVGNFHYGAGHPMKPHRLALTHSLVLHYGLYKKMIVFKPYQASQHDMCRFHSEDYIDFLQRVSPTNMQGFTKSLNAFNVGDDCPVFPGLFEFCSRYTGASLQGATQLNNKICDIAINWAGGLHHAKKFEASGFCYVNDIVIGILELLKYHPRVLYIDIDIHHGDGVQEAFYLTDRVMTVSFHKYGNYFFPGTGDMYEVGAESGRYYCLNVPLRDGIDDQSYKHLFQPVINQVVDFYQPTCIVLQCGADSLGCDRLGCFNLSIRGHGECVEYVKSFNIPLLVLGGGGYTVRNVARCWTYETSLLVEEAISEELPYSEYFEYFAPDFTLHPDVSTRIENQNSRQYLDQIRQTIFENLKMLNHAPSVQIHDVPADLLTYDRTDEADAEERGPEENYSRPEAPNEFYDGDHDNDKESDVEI"}, "source": "ChEMBL document CHEMBL1833850", "about": "“Thailandepsins: bacterial products with potent histone deacetylase inhibitory activities and broad-spectrum antiproliferative activities” (J Nat Prod, 2011)", "target": "Histone deacetylase 3/Nuclear receptor corepressor 2 (HDAC3/NCoR2) (Homo sapiens, UniProt O15379)", "type": "protein-complex assay", "data": [{"smiles": "CC=C1NC(=O)[C@@H](CS)NC(=O)[C@@H](C(C)C)NC(=O)C[C@@H](/C=C/CCS)OC(=O)[C@H](C(C)C)NC1=O", "note": "[FR-135313]", "values": [{"measurement": "IC50", "value": 5.3, "unit": "nM"}]}]}
